# Test results as given in IntAct's records for PubMed 25314079.
# B1: Zinc finger protein SNAI1 (Homo sapiens), O95863 (parent)
# chain: MPRSFLVRKPSDPNRKPNYSELQDSNPEFTFQQPYDQAHLLAAIPPPEILNPTASLPMLIWDSVLAPQAQPIAWASLRLQESPRVAELTSLSDEDSGKGSQPPSPPSPAPSSFSSTSVSSLEAEAYAAFPGLGQVPKQLAQLSEAKDLQARKAFNCKYCNKEYLSLGALKMHIRSHTLPCVCGTCGKAFSRPWLLQGHVRTHTGEKPFSCPHCSRAFADRSNLRAHLQTHSDVKKYQCQACARTFSRMSLLHKHQESGCSGCPR
# Variants of: B1
# Details: with ep300_human EP300, Q09472
row,Variant,effect of a mutation on the interaction
1,MPRSFLVRKPSDPNRKPNYSELQDSNPEFTFQQPYDQAHLLAAIPPPEILNPTASLPMLIWDSVLAPQAQPIAWASLRLQESPRVAELTSLSDEDSGKGSQPPSPPSPAPSSFSSTSVSSLEAEAYAAFPGLGQVPKQLAQLSEARDLQARKAFNCKYCNKEYLSLGALKMHIRSHTLPCVCGTCGKAFSRPWLLQGHVRTHTGEKPFSCPHCSRAFADRSNLRAHLQTHSDVKKYQCQACARTFSRMSLLHKHQESGCSGCPR [K146R],decreasing interaction strength

# Variants of: B1
# Details: with ep300_human EP300, Q09472
# Remark: another data set of the same source
row,Variant,effect of a mutation on the interaction
1,MPRSFLVRKPSDPNRKPNYSELQDSNPEFTFQQPYDQAHLLAAIPPPEILNPTASLPMLIWDSVLAPQAQPIAWASLRLQESPRVAELTSLSDEDSGKGSQPPSPPSPAPSSFSSTSVSSLEAEAYAAFPGLGQVPKQLAQLSEAKDLQARKAFNCKYCNKEYLSLGALKMHIRSHTLPCVCGTCGRAFSRPWLLQGHVRTHTGEKPFSCPHCSRAFADRSNLRAHLQTHSDVKKYQCQACARTFSRMSLLHKHQESGCSGCPR [K187R],decreasing interaction strength

# Variants of: B1
# Details: with cbp_human CREBBP
row,Variant,effect of a mutation on the interaction
1,MPRSFLVRKPSDPNRKPNYSELQDSNPEFTFQQPYDQAHLLAAIPPPEILNPTASLPMLIWDSVLAPQAQPIAWASLRLQESPRVAELTSLSDEDSGKGSQPPSPPSPAPSSFSSTSVSSLEAEAYAAFPGLGQVPKQLAQLSEARDLQARKAFNCKYCNKEYLSLGALKMHIRSHTLPCVCGTCGRAFSRPWLLQGHVRTHTGEKPFSCPHCSRAFADRSNLRAHLQTHSDVKKYQCQACARTFSRMSLLHKHQESGCSGCPR [K146R;K187R],disrupting interaction strength

# Variants of: B1
# Details: with tf65_human RELA
row,Variant,effect of a mutation on the interaction
1,MPRSFLVRKPSDPNRKPNYSELQDSNPEFTFQQPYDQAHLLAAIPPPEILNPTASLPMLIWDSVLAPQAQPIAWASLRLQESPRVAELTSLSDEDSGKGSQPPSPPSPAPSSFSSTSVSSLEAEAYAAFPGLGQVPKQLAQLSEARDLQARKAFNCKYCNKEYLSLGALKMHIRSHTLPCVCGTCGRAFSRPWLLQGHVRTHTGEKPFSCPHCSRAFADRSNLRAHLQTHSDVKKYQCQACARTFSRMSLLHKHQESGCSGCPR [K146R;K187R],disrupting interaction strength
